Values of other authors, collected in patent US11365216B2, “Antiviral immunotropic agent for the treatment of acute respiratory viral infections” (PVP LABS PTE. LTD., priority 2018, dated 2022).

The chains behind the UniProt entries cited, without tags or fusion partners. Where a name states a change or a piece, a line headed by the entry shows the natural chain unless it says otherwise.
UniProt P01210: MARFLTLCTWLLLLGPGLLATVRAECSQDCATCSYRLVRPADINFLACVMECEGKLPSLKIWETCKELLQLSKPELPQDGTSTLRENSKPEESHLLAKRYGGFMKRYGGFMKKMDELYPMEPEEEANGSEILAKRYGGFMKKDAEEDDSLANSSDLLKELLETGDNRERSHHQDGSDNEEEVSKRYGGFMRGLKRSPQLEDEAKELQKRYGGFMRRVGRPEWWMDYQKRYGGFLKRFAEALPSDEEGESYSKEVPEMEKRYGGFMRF

System: Interferon-α (IFN-α)
Details: 24 and 48 hours after subcutaneous administration at 10 mg/kg; cited from earlier work

In the case of “leucine-enkephalin (YGGFL; Leu-enkephalin; UniProt P01210 230-234, looked up)”, the “Interferon-α (IFN-α) secretion” value is given as “increase”.
